Only a part is listed here, and it is no random draw. Some salts and complexes are drawn in separate pieces, as the source files them; their charges need not balance. Calls of active or inactive are those of the source.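 Rule for the calls: active = more than half of replicate wells show activity change below -50%, luminescence cut by over half; inconclusive = some wells, but at most half, below -50%; inactive = no replicate well below -50%.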
Test: blocking HSF1-driven luciferase expression – cell-based, NIH3T3, luminescence, primary screen (AID 2098);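 note: luciferase reports HSF-1 transcriptional activity via heat shock element; 0% = median of DMSO wells and -100% = zero luminescence signal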
Conditions: NIH3T3-HGL HSE-luciferase, MG132-induced, luminescence 8 h; stronger effect = lower value; screened at 7.5 µM (by protocol)

| SMILES | activity change, negative = inhibition |
| --- | --- |
| COc1ccc(OP(C)(=O)Nc2ccc(Br)cc2)cc1 (configuration not stated) | inactive: 2.06% |
| CCN(CC)CC(O)COC(=O)C(O)(c1ccccc1)C1CCCCC1 (configuration not stated) | inactive: -0.202% |
| CCc1ccc(OP(C)(=O)Nc2cccnc2)cc1 (configuration not stated) | inactive: -1.49% |
| CP(=O)(Oc1ccccc1)N1CCOC1=O (configuration not stated) | inactive: -2.27% |
| O=C(OCCCN1CCCC1)C(O)(c1ccccc1)C1CCCCC1 (configuration not stated) | inactive: -3.13% |
| COc1ccccc1OP(C)(=O)Nc1c(C)n(C)n(-c2ccccc2)c1=O (configuration not stated) | inactive: -1.07% |
| CP(=O)(Nc1ccc(Cl)cc1)Oc1ccc(F)cc1 (configuration not stated) | inactive: 2.29% |
| COc1ccccc1OP(C)(=O)Nc1ccccc1Br (configuration not stated) | inactive: -1.62% |
| CC(C)(C)c1ccc(OP(C)(=O)O)cc1 | inactive: -2.08% |
| CN(C)C(=O)c1c([N+](=O)[O-])cc([N+](=O)[O-])cc1[N+](=O)[O-] | inactive: 15.5% |
| Nc1ccc2c(ccc3cccnc32)n1.O=[N+]([O-])c1cc([N+](=O)[O-])c(O)c([N+](=O)[O-])c1 | inactive: -20.1% |
| CP(=O)(OC12CC3CC(CC(C3)C1)C2)OC12CC3CC(CC(C3)C1)C2 | inactive: 4.03% |
| CCOC(=O)c1ccc(NP(C)(=O)Oc2ccc(Cl)cc2)cc1 (configuration not stated) | inactive: 0.503% |
| COc1ccc(OP(C)(=O)Nc2ccccc2Br)cc1 (configuration not stated) | inactive: 10.9% |
| COc1ccccc1OP(C)(=O)Nc1ccc(C)c(C)c1 (configuration not stated) | inactive: 3.59% |
| Cc1nc2ccc3ccccc3c2o1.O=[N+]([O-])c1cc([N+](=O)[O-])c(O)c([N+](=O)[O-])c1 | inactive: 37.8% |
| CCCCCCCCCCCCCCCC1C[N+](C)(C)CCOP(C)(=O)O1 (configuration not stated) | inactive: -3.56% |
| CP(=O)(Nc1ccc(Cl)cc1Cl)Oc1ccccc1 (configuration not stated) | inactive: 2.91% |
| CP(=O)(OCCOc1ccccc1)OCCOc1ccccc1 | inactive: 19% |

| SMILES | activity change, negative = inhibition |
| --- | --- |
| COc1ccccc1OP(C)(=O)Nc1ccc(Br)cc1 (configuration not stated) | inactive: 9.22% |
| CN(C)CCOC(=O)C(O)(c1ccccc1)C1CCCC1 (configuration not stated) | inactive: -4.61% |
| COc1ccc(OP(C)(=O)Nc2ccccn2)cc1 (configuration not stated) | inactive: -5.35% |
| Cc1c(NP(C)(=O)Oc2ccc(C(C)C)cc2)c(=O)n(-c2ccccc2)n1C (configuration not stated) | inactive: 3.81% |
| CCc1ccc(OP(C)(=O)O)cc1 | inactive: -11.6% |
| COc1ccccc1OP(C)(=O)Nc1ccc(C)cc1C (configuration not stated) | inactive: -5.58% |
| CP(=O)(Nc1ccccn1)Oc1ccccc1 (configuration not stated) | inactive: -1.92% |
| CC(C)c1ccc(OP(C)(=O)Nc2ccc(SC(F)(F)F)cc2)cc1 (configuration not stated) | inactive: 13.5% |
| CP(=O)(Nc1ccccc1F)Oc1ccccc1 (configuration not stated) | active: -82.6% |
| O=C(OCCN1CCN(CCOCc2ccccc2)CC1)C(O)(c1ccccc1)c1ccccc1 | inactive: -7.79% |
| O=C(OC1CN2CCC1CC2)c1ccc([N+](=O)[O-])cc1 (configuration not stated) | inactive: -3.38% |
| COc1ccc2c(c1O)-c1c(O)c(OC)cc3c1[C@H](C2)[N+](C)(C)CC3.O=[N+]([O-])c1cc([N+](=O)[O-])c([O-])c([N+](=O)[O-])c1[O-] | inactive: -1.53% |
| COc1ccc(OP(C)(=O)Nc2ccc(SC(F)(F)F)cc2)cc1 (configuration not stated) | inactive: 25.7% |
| CCOC(=O)c1ccc(NP(C)(=O)Oc2ccc(F)cc2)cc1 (configuration not stated) | inactive: -0.00234% |
| CCN(CC)CCCOC(=O)C(O)(c1ccccc1)C1CCCCC1 (configuration not stated) | inactive: -8% |
| CCCCCOc1ccc(NP(C)(=O)Oc2ccc(Cl)cc2Cl)cc1 (configuration not stated) | inactive: -3.2% |
| O=[N+]([O-])c1cc([N+](=O)[O-])c(OC2CCCCC2O)c([N+](=O)[O-])c1 (configuration not stated) | inactive: -14.9% |
| CP(=O)(Nc1ccccc1)Oc1ccc(F)cc1 (configuration not stated) | inactive: -3.63% |
| COc1ccc(OP(C)(=O)Nc2cccc(Br)c2)cc1 (configuration not stated) | inactive: 24.9% |

| SMILES | activity change, negative = inhibition |
| --- | --- |
| COc1ccc(NP(C)(=O)Oc2ccccc2OC)cc1 (configuration not stated) | inactive: -2.93% |
| CN(C)CCOC(=O)C(O)(c1ccccc1)C1CCCCC1 (configuration not stated) | inactive: -7.73% |
| Cc1cc(-c2cccc3ccccc23)c(C)cn1.O=[N+]([O-])c1cc([N+](=O)[O-])c(O)c([N+](=O)[O-])c1 | inactive: -2.18% |
| O=[N+]([O-])c1cc([N+](=O)[O-])c(NCC2CCS(=O)(=O)C2)c([N+](=O)[O-])c1 (configuration not stated) | inactive: -5.59% |
| O=[N+]([O-])c1ccc(OP2(=O)COCCO2)cc1 (configuration not stated) | inactive: 3.44% |
| CP(=O)(Nc1ccc(SC(F)(F)F)cc1)Oc1ccc(F)cc1 (configuration not stated) | inactive: -6.93% |
| CCOP(C)(=S)SCC(=O)NC(C)(CC)C(=O)O (configuration not stated) | inactive: -6.66% |
| CP(=O)(Nc1ccc2c(c1)OCCO2)Oc1ccccc1 (configuration not stated) | inactive: -16% |
| Cc1ccccc1NP(C)(=O)Nc1ccccc1C | inactive: 3.38% |
| O=[N+]([O-])c1cc([N+](=O)[O-])c(-n2nnc3ccccc32)c([N+](=O)[O-])c1 | inactive: -2.55% |
| O=[N+]([O-])c1cc([N+](=O)[O-])c(-c2cnn(-c3ccccc3)c2)c([N+](=O)[O-])c1 | inactive: 0.081% |
| CCOC(=O)C(CC)C1=NC(C)(C)Cc2ccccc21.O=[N+]([O-])c1cc([N+](=O)[O-])c(O)c([N+](=O)[O-])c1 (configuration not stated) | inactive: -2.78% |
| O=[N+]([O-])c1cc([N+](=O)[O-])c(Nc2nnnn2CCO)c([N+](=O)[O-])c1 | inactive: -3.65% |
| COc1ccccc1OP(C)(=O)Nc1c(C)cccc1C (configuration not stated) | inactive: -0.66% |
| CN1CCCCC1COC(=O)C1(O)c2ccccc2CCc2ccccc21 (configuration not stated) | inactive: 2.74% |
| CCCOc1ccc(NP(C)(=O)Oc2ccc(Cl)cc2)cc1 (configuration not stated) | inactive: 3.14% |
| CP(=O)(Nc1ccc(SC(F)(F)F)cc1)Oc1ccccc1 (configuration not stated) | inactive: 30.4% |
| O=C(O)c1cccc(Nc2c([N+](=O)[O-])cc([N+](=O)[O-])cc2[N+](=O)[O-])c1 | inactive: 1.64% |
| CC1=NCCc2c1[nH]c1ccccc21.O=[N+]([O-])c1cc([N+](=O)[O-])c(O)c([N+](=O)[O-])c1 | inactive: -5.98% |

From PubChem BioAssay AID2098 (Broad Institute, 2009)
